The subject of the experiment is serotonin (5-HT) uptake. Briefly: inhibition of [3H]-amine uptake by synaptosome preparations, cortex (serotonin). Type of experiment: biochemical, rat (male Sprague-Dawley). Particulars: cortex synaptosomes, [3H]-amine approx. 100 nM, 4 min, 37° C.; read-out: Biogenic amine uptake IC50 5-HT. An excerpt:
The primary method of evaluation of biogenic amine uptake activity has been the in vitro determination of the inhibition of radioactive amine uptake by synaptosome preparations of brain tissue. Basic procedures used are those described by Snyder and Coyle (Snyder, S. H. and J. T. Coyle, Regional Differences in ^3 H-Norepinephrine and ^3 H-Dopamine Uptake into Rat Brain Homogenates, Journal of Pharmacology and Experimental Therapeutics 1969, 165: 78-86) and Wong et al. (Wong, D. T., J-S. Horng and R. W. Fuller, Kinetics of Norepinephrine Accumulation into Synaptosomes of Rat Brain-Effects of Amphetamine and Chloroamphetamines, Biochemical Pharmacology 1973, 22:311-322). […] Data were analyzed as described previously (J. F. DeBemardis, D. J. Kerkman, D. L. Arendsen, S. A. Buckner, J. J. Kyncl, and A. A. Hancock, Conformationally Defined Adrenergic Agents. 5. Resolution, Absolute Configuration, and Pharmacological Characterization of the Enantiomers of 2-[5,6-Dihyroxy-1,2,3,4-tetrahydro-1-1-naphthyl]imidazoline: A Potent Agonist at a-Adrenoceptors, Journal of Medicinal Chemistry 1987, 30: 1011-1017).

Broadly, the IC50 is the midpoint of a concentration-inhibition curve.

`COC(=O)[C@H]1[C@H]2C[C@H]3c4[nH]c5ccccc5c4CCN3C[C@H]2CC[C@@H]1O` [Rauw*, Rauwolscine, reference compound]: the IC50 was above 100 nM.

(Values after US5389638A, “Tetrahydroisoquinolines as alpha-2 antagonists and biogenic amine uptake inhibitors” (Abbott Laboratories, priority 1993, dated 1995).)
